Our source for the Ki values is ChEMBL document CHEMBL1141881, “Modeling the similarity and divergence of dopamine D2-like receptors and identification of validated ligand-receptor complexes” (J Med Chem, 2005).

By UniProt entry, the sequences of proteins in these tests, tags left out.
UniProt P35462, whole entry: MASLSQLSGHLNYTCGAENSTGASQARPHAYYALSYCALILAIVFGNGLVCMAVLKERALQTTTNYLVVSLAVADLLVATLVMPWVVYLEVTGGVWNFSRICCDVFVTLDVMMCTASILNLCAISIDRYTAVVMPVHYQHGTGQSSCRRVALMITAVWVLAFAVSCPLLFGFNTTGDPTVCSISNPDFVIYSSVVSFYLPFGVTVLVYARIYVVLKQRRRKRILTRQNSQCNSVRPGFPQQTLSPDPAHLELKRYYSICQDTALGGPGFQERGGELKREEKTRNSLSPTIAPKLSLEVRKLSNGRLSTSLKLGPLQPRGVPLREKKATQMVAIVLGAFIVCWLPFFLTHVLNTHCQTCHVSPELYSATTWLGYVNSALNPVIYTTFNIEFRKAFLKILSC

The test concerns the target D(3) dopamine receptor (Homo sapiens, UniProt P35462).

Each structure is given as a SMILES string.

On to `CCN1CCC[C@H]1CNC(=O)c1cc(S(N)(=O)=O)ccc1OC` [SULPIRIDE], for which the affinity corresponds to a Ki of 120 nM.
